We go through one compound from BindingDB's records for US10155733.

Amino acid sequences for entries named in this document (tags omitted).
UniProt P20309, whole entry, looked up: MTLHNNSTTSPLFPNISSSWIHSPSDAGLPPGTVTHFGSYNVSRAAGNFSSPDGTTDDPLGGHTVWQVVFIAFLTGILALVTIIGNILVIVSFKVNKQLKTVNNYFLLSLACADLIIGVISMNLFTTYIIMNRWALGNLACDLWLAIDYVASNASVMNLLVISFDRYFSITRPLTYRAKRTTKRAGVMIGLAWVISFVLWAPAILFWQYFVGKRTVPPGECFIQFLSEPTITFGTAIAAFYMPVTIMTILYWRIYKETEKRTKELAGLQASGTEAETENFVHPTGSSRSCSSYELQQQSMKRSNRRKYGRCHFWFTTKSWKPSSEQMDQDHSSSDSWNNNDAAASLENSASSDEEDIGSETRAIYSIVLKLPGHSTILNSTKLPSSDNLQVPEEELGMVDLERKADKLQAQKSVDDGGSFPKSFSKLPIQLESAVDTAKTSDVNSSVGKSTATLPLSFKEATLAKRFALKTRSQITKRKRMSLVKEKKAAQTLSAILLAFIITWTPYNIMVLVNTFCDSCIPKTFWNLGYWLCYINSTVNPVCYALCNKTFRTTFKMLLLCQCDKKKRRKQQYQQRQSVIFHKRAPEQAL

The test deals with Muscarinic acetylcholine receptor M3 (Homo sapiens, UniProt P20309). In words: Muscarinic 3 Receptor Binding Assay.

`CN1CCCN(C(=O)C(O)(c2ccccc2)C2CCCCC2)CC1` (stereo unspecified): the IC50 (as a rule, the concentration that gives 50% inhibition) stood at 60 nM.
